In US6307035, “BRCA1 associated polynucleotide (BAP-1) and uses therefor” (The Wistar Institute of Anatomy and Biology, dated 2001):

Molecular target: full length BRCA1 (human, UniProt P38398)
Assay: GST pull-down, SDS-PAGE and fluorography

B1: GST (glutathione-S-transferase alone) (other)
chain: MSPILGYWKIKGLVQPTRLLLEYLEEKYEEHLYERDEGDKWRNKKFELGLEFPNLPYYIDGDVKLTQSMAIIRYIADKHNMLGGCPKERAEISMLEGAVLDIRYGVSRIAYSKDFETLKVDFLSKLPEMLKMFEDRLCHKTYLNGDHVTHPDFMLYDALDVVLYMDPMCLDAFPKLVCFKKRIEAIPQIDKYLKSSKYIAWPLQGWQATFGGGDHPPK
B1: no binding.
